# Earlier results, collected in US20160209428A1, “DIAGNOSTIC AND PREDICTIVE METABOLITE PATTERNS FOR DISORDERS AFFECTING THE BRAIN AND NERVOUS SYSTEM” (THE REGENTS OF THE UNIVERSITY OF CALIFORNIA, priority 2013, published 2016).
# Protein sequences, listed by entry. Tags and fused reporters are not part of them.
# UniProt P47746, whole entry: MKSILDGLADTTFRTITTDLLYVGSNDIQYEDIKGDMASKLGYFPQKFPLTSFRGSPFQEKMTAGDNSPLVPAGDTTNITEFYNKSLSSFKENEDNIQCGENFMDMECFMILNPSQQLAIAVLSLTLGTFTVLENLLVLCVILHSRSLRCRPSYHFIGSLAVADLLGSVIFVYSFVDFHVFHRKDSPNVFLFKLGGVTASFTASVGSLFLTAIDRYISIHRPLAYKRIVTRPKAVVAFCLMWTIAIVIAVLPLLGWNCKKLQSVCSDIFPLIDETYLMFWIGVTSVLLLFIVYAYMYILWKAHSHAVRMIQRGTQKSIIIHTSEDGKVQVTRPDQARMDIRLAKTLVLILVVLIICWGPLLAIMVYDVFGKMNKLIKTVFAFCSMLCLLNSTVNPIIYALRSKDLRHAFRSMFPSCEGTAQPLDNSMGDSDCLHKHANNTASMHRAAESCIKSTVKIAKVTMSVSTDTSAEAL
# Target: CB1R (Mus musculus, UniProt P47746)
# Settings: CB1R antagonist; cited from earlier work
structure (smiles),measurement,value
Cc1c(C(=O)NN2CCCCC2)nn(-c2ccc(Cl)cc2Cl)c1-c1ccc(Cl)cc1 [rimonabant],symptoms in the Fragile X model,improve several symptoms
